Target: T1, Liver carboxylesterase 1 (Homo sapiens, UniProt P23141)
T1 sequence (P23141 whole entry): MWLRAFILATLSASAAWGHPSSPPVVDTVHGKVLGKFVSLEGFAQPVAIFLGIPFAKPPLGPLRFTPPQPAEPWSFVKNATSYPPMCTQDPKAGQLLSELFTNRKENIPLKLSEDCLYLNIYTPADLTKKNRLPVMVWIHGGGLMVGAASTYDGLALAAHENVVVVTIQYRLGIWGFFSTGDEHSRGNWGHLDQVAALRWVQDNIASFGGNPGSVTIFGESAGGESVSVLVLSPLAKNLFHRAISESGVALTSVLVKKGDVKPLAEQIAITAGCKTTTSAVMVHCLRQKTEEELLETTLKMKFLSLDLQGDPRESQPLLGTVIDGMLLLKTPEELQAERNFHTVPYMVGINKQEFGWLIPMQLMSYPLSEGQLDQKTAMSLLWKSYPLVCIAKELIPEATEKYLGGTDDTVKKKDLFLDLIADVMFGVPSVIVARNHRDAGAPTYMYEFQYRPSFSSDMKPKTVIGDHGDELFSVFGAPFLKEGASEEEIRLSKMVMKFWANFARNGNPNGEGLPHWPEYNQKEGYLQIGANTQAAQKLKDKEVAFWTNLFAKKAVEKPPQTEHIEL
Experiment: Activity of human recombinant carboxylesterase 1 assessed as AUDA hydrolysis
Parameters: scale not given: the % may be the effect or the level left
Procedure, shortened: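 Ester (100 μM) was incubated with purified baculovirus-expressed human carboxylesterase (hCE-1 or hCE-2, 5 μg; 333 nM) in 0.1 M sodium phosphate pH 7.4 at 37°C. Sampling was at 0, 30 and 60 min, with 60 min reported. Percent free acid (AUDA) formed was measured by LC-MS/MS. Values are averages of three separate measurements.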

An Activity of 50% was found for `CCC(C)OC(=O)CCCCCCCCCCCNC(=O)NC12CC3CC(CC(C3)C1)C2` (stereo unspecified) in this work.
